Test results taken from patent publication US20200129597A1, “MODULATION OF FACTOR Xa INHIBITOR-MEDIATED BLOOD LOSS BY PARTIAL AND TRANSIENT ADMINISTRATION OF ANTIDOTE” (Portola Pharmaceuticals, Inc., priority 2012, published 2020).

Sequences of proteins named here, by UniProt entry; tags and fusion partners are left off. Residues count along the entry.
UniProt P00742, 41-179 limits assumed: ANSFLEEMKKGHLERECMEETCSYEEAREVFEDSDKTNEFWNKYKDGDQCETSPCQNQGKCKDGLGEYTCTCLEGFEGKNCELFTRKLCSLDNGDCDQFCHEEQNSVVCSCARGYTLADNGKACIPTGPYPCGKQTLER
UniProt P00742, 235-488 limits assumed: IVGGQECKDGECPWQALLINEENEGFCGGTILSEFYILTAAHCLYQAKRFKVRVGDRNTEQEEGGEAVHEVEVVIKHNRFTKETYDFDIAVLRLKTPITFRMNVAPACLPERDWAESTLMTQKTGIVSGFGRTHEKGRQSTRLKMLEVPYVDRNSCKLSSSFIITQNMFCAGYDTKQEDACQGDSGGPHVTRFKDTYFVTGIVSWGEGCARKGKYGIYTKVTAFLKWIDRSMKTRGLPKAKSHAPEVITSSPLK

Columns and labels:
[1] = Anti-fXa activity in mouse plasma after rivaroxaban and r-Antidote; format: in vivo; settings: Treat-V, r-Antidote 0.96 mg/mouse
Procedure: Anti-fXa activity was measured using an adapted assay using reagents from a commercial Heparin kit (available from Coamatic, DiaPharma). […] Bovine fXa and 52732 fXa substrate were reconstituted according to manufacturer's instructions. The reaction mixture contained 75 μL citrated plasma sample or standard, 50 μL substrate S2732. Following pre-incubation at RT for 30 min, 25 μL, bovine fXa was added to the mixture and residual fXa activity was determined by measuring cleavage of substrate at RT for 5 min. The reaction was quenched by adding 20% acetic acid (50 μL). The standard curves were constructed with known concentrations of each individual anticoagulant.

[2] = target: T1, purified human plasma fXa (Homo sapiens, UniProt P00742); assay: fXa enzyme assay: reversal of direct fXa inhibitors by r-Antidote (Dynafit); format: biochemical
T1 construct: FXa contains a light chain and a heavy chain; purchased Haematologic Technologies; host or cells: human plasma (plasma-derived)
Procedure: The lines represent the best fittings; Kd and Ki values are listed. mOD min^−1=miliOptical Density per minute. […] Grey bar: Control plasma alone (PPP), Filled bar: rivaroxaban or rivaroxaban+r-antidote, Open bar: Control plasma+r-antidote. […] Thrombin generation was initiated by addition of Ca^2+ and tissue factor (TF). Cleavage of thrombin specific substrate Z-GGR-AMC (RFU=Relative Fluorescence Units) was measured at 37° C. for 10 min.
After incubation at room temperature (RT) for 30 min, 100 μM Spectrozyme-fXa (available commercially from American Diagnostica) was added to the mixture and initial rate of substrate cleavage was monitored continuously for 5 min at 405 nm in a 96-well plate reader. […] Betrixaban was synthesized according to methods known in the art. Rivaroxaban and apixaban can be purchased commercially from, for example, J Star Research and American Custom Chemicals Corporation.

[3] = Single ascending dose study in healthy volunteers: pharmacokinetics; format: in vivo, human

B1: r-Antidote: processed two-chain polypeptide of SEQ ID NO: 3; modified, catalytically inactive human recombinant fXa lacking the Gla domain (protein)
chain: ANSFLFWNKYKDGDQCETSPCQNQGKCKDGLGEYTCTCLEGFEGKNCELFTRKLCSLDNGDCDQFCHEEQNSVVCSCARGYTLADNGKACIPTGPYPCGKQTLERIVGGQECKDGECPWQALLINEENEGFCGGTILSEFYILTAAHCLYQAKRFKVRVGDRNTEQEEGGEAVHEVEVVIKHNRFTKETYDFDIAVLRLKTPITFRMNVAPACLPERDWAESTLMTQKTGIVSGFGRTHEKGRQSTRLKMLEVPYVDRNSCKLSSSFIITQNMFCAGYDTKQEDACQGDAGGPHVTRFKDTYFVTGIVSWGEGCARKGKYGIYTKVTAFLKWIDRSMKTRGLPKAKSHAPEVITSSPLK
modifications: processed two-chain form
**Q.** For B1, which “reduction of rivaroxaban anticoagulant activity as measured by anti-fXa activity” value [1] is on record?
**A.** > 80%

**Q.** And the “affinities of r-Antidote for the direct fXa inhibitors (Kd)” value ([2]; betrixaban, rivaroxaban and apixaban)?
**A.** sub-nanomolar

**Q.** And the “change in fXa activity in the absence of inhibitor” value ([2]; r-Antidote 0-250 nM)?
**A.** did not produce any change in fXa activity

**Q.** And the Cmax ([3]; 600 mg dose)?
**A.** 2200 nM

**Q.** And the “AUC and Cmax dose proportionality” value ([3]; 30, 90, 300, 600 mg)?
**A.** increased disproportionately relative to dose

**Q.** What about the “terminal t½” value ([3]; healthy volunteers, single IV bolus 30-600 mg) of the same molecule?
**A.** ~6 h
